Experimental data published in ChEMBL document CHEMBL4699668, “Discovery and Structure-Activity Relationships of Novel Template, Truncated 1'-Homologated Adenosine Derivatives as Pure Dual PPARγ/δ Modulators” (J Med Chem, 2020).

The chains behind the UniProt entries cited, without tags or fusion partners. Where a name states a change or a piece, a line headed by the entry shows the natural chain unless it says otherwise.
UniProt P37231: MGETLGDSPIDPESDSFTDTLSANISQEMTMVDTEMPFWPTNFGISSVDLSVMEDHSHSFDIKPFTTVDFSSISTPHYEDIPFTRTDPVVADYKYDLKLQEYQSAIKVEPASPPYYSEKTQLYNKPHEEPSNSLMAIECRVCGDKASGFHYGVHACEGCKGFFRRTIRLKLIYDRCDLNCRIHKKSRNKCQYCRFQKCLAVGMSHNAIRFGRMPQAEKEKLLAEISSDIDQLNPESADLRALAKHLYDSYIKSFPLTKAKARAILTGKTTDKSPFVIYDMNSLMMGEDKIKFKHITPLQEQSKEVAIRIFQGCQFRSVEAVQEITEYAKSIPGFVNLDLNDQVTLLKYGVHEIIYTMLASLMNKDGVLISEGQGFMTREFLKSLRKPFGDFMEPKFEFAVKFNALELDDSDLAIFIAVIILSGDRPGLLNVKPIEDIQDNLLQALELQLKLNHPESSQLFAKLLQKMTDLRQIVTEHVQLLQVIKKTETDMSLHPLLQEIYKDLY

Legend:
[1] = molecular target: T1, Peroxisome proliferator-activated receptor delta (Homo sapiens, UniProt Q03181)
T1 sequence (Q03181 whole entry): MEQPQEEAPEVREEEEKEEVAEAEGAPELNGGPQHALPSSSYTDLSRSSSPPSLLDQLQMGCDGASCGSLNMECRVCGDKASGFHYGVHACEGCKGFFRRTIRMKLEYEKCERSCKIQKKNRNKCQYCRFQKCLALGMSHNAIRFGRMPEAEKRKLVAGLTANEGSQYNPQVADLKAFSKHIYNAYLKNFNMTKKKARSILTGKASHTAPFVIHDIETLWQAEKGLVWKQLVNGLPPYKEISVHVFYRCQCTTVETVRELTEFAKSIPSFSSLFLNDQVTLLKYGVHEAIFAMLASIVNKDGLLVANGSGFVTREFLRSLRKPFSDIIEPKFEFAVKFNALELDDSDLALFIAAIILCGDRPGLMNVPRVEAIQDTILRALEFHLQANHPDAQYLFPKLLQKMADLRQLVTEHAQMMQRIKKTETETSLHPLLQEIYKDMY

[2] = molecular target: T1, Peroxisome proliferator-activated receptor delta; remark: listed apart in the source
[3] = molecular target: Peroxisome proliferator-activated receptor gamma (Homo sapiens, UniProt P37231)

O[C@@H]1[C@H](O)CS[C@H]1Cn1cnc2c(NCc3cccc(I)c3)nc(Cl)nc21
EC50 [1]: 12.5 µM | Ki [2]: 0.106 µM

O[C@@H]1[C@H](O)CS[C@H]1n1cnc2c(NCc3cccc(I)c3)nc(Cl)nc21
Ki [3]: 3.33 µM
